# Measured affinities in a library of Ab-14 heavy chain variants

Source: Engelhart et al. 2022 (doi:10.1038/s41597-022-01779-4), MIT Lincoln Laboratory and A-Alpha Bio; data file from the FLAb repository.

Antigen: PDVDLGDISGINAS, a 14-residue peptide of the SARS-CoV-2 spike HR2 region.

Ab-14 is the parent antibody, in scFv form: VH, then a (GGGGS)3 linker, then VL. The light chain is unchanged in all variants.
VH: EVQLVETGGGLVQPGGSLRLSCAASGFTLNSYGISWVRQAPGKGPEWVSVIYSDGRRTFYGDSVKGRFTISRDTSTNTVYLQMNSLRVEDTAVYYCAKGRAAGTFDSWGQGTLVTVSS
VL: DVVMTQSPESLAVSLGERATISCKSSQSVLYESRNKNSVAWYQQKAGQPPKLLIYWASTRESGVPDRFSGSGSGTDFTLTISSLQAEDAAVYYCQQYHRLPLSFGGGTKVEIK

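AAYL49 was designed without a model: most single CDR substitutions and a random sample of double and triple ones. In AlphaSeq, yeast of one mating type display the scFv and yeast of the other type display the target. Pairs that bind mate more often; barcode pairs of the diploids are counted by sequencing. Read counts were normalised to the haploid input and turned into Kd by a linear fit to BCL2-family pairs of known affinity, for each replicate. The assay was run in three technical replicates.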

Variants are written as CDR1, CDR2 and CDR3 of the heavy chain (limits as in the source). Parent: GFTLNSYGIS, VIYSDGRRTFYGDSVK, GRAAGTFDS.
This list gathers variants with a substitution at D62 (VH, numbered from residue 1).
Values are apparent Kd, the geometric mean of the replicates that gave a signal; lower means stronger binding.
Where no diploid with the target was found in any replicate, the entry reads "nd": below detection, most likely a poor binder, though not proof of it.

With GFTLNSYGIS / VIYSDGRRTFYGRSVK / GRAAGTFDS the result was 110 nM (2 of 3 replicates). For GQTLNSYGVS / VIYSDGRRTFYGWSVK / GRAAGTFDS, the assay gave nd (0 of 3 replicates). Variant GFTLNSYGIS / VIYSKGRRTFYGASVK / GRAAGTFDP showed nd (0 of 3 replicates). With GFTLNSYGIS / VFYSDGRRTFYGSSVK / GRAAGTHDS the result was nd (0 of 3 replicates). For GFTLNSYWIW / VIYSDGRRTFYGLSVK / GRAAGTFDS, the assay gave nd (0 of 3 replicates). Variant GFTLNSYGIS / VIYSDGRRTFYIMSVK / GWAAGTFDS showed nd (0 of 3 replicates). For GFTMNSYGIS / VIYSDGRRTFLGISVK / GRAAGTFDS, the assay gave 1.5 µM (1 of 3 replicates). Variant GVTLNSYGIS / VIFSDGRRTFYGISVK / GRAAGTFDS showed nd (0 of 3 replicates).

For GFTLNSYGIS / VIYSDGRRTFYGFSVK / GFRAGTFDS, the assay gave nd (0 of 3 replicates). With GFTLNSYGIS / VIYSDGRRTFLGTSKK / GRAAGTFDS the result was nd (0 of 3 replicates). Variant GFTLNSYGIS / VIYSDGRRTLYGGSVK / DRAAGTFDS showed nd (0 of 3 replicates). Variant GFTLNSYGIS / VIYSDTRQTFYGVSVK / GRAAGTFDS gave 12 µM (1 of 3 replicates). With GFTLNSYGIP / VIYSDGRRTFYGQSVK / GRAAGTFDS the result was 60 µM (1 of 3 replicates). Variant GFTLNSYGIS / VIYSDGRRTFYGASVK / GRAAGTPNS showed nd (0 of 3 replicates). Variant GFTLNSYNIS / VIYSDGRRTFYGWSYK / GRAAGTFDS showed 130 µM (3 of 3 replicates). Variant GFTLNSMGIS / VITSDGRRTFYGTSVK / GRAAGTFDS gave nd (0 of 3 replicates).

With GFTQNSYGIS / VIYSDNRRTFYGRSVK / GRAAGTFDS the result was 2.5 µM (1 of 3 replicates). Variant GFTLGSYGIS / VIYSDGRRTFYGESVK / GKAAGTFDS showed 9.6 nM (3 of 3 replicates). For GFTLYSYGIS / VIYSDGRRTFYGVSVK / GRAAGPFDS, the assay gave 35 µM (1 of 3 replicates). Variant GFTLNSYGIG / VIYSDGRRTFTGSSVK / GRAAGTFDS showed 350 µM (2 of 3 replicates). Variant GFTLNSYGIS / VIYSDQRRTFYGSSVK / GRAANTFDS showed nd (0 of 3 replicates). For GFTLNSYGIS / VIYQDGRRTFYGYSVK / GRAAGTGDS, the assay gave nd (0 of 3 replicates). For GFTLNSYGIS / VIYSDGRRTFYSASVK / GRAAGTFDS, the assay gave 5.7 µM (1 of 3 replicates). With GFTLNSYGIS / VIYSDGRRTFYGTSVK / GEARGTFDS the result was nd (0 of 3 replicates).

Variant GFTLNWYGIS / VIYSDGRRTFYGNSVK / GRAAGTFDS showed 660 nM (3 of 3 replicates). Variant GFTLNSYGIS / VIYSDGFRTFYGWSVK / GRAAGWFDS gave 8.6 µM (2 of 3 replicates). For GFTLNSYGIS / VYYHDGRRTFYGESVK / GRAAGTFDS, the assay gave nd (0 of 3 replicates). For GFTKNSYWIS / VIYSDGRRTFYGISVK / GRAAGTFDS, the assay gave 3.4 µM (1 of 3 replicates). For GFTLNSYQIS / VIMSDGRRTFYGASVK / GRAAGTFDS, the assay gave nd (0 of 3 replicates). With GFTLNSCGIS / VIYSDGRRTFYGKSVK / GRAAGTFDI the result was nd (0 of 3 replicates). With GFTLNSYGIS / MIYSKGRRTFYGCSVK / GRAAGTFDS the result was nd (0 of 3 replicates). With GFTLNSYGIS / VIYSDGRRTFYGHSVK / GRAAGTFDS the result was 81 nM (3 of 3 replicates).

With GFTLESYGIS / VIYSDGRATFYGSSVK / GRAAGTFDS the result was 12 µM (2 of 3 replicates). Variant GFTLNSYGIS / VIYSDGRRRFYGSSVK / GRAAGTFDS gave nd (0 of 3 replicates). Variant GFTLNSYEIT / VIYSDGRRTFYGVSVK / GRAAGTFDS showed nd (0 of 3 replicates). For GFTLNSYHIS / VIYSDGRRTFYEGSVK / GRAAGTFDS, the assay gave nd (0 of 3 replicates). For GFTLNSYGIS / VIYSDGRRTFYGFSVK / GRAAGTFDQ, the assay gave nd (0 of 3 replicates). With GFTLNSSGIS / VIYSDGRRTFYGNSVK / GRDAGTFDS the result was nd (0 of 3 replicates). With GFTLNSYGIS / VIYSTGRRTFYGNSVK / GRAAGTFDS the result was nd (0 of 3 replicates). With GFTLNSYGNS / VIYSFGRRTFYGESVK / GRAAGTFDS the result was nd (0 of 3 replicates).

Variant GFTLNSYGIS / VIYSDGRRTFYGESVE / GRAAGCFDS showed 12 µM (3 of 3 replicates). Variant GFTLNVYGIS / VEYSDGRRTFYGTSVK / GRAAGTFDS gave 120 µM (1 of 3 replicates).

The first 3 entries again:

Variant GFTLNSYGIS / VIYSDGRRTFYGRSVK / GRAAGTFDS showed 110 nM (2 of 3 replicates).
Variant GQTLNSYGVS / VIYSDGRRTFYGWSVK / GRAAGTFDS showed nd (0 of 3 replicates).
Variant GFTLNSYGIS / VIYSKGRRTFYGASVK / GRAAGTFDP showed nd (0 of 3 replicates).

Three control strains display no target. For library AAYL49, 15% of the pairings with them gave a signal, with a median of 11 µM and one signal in twenty below 680 nM, so weak values seen in few replicates may be background.